Paper PMC11855866, “Combining Sulfonylureas with Anticancer Drugs: Evidence of Synergistic Efficacy with Doxorubicin In Vitro and In Vivo” (International Journal of Molecular Sciences, 2025)

Test system: MCF-7 cells
Assay: MTT cytotoxicity / synergy assay, 72 h, MCF-7
Type: cell-based, human
Description: Stock solutions of the tested compounds were first prepared in DMSO at 200-fold the intended final concentration. […] The cells were treated for 72 h under the same conditions.
Following treatment, 25 μL of MTT solution was added to each well, and the plates were incubated for 2 h at 37 °C. […] IC₅₀ values, indicating the concentration required to reduce cell viability by 50% compared to untreated controls (set as 100% viability), were calculated using GraphPad Prism 9 software (GraphPad Software, San Diego, CA, USA). All data from this preliminary cytotoxic assay were analyzed by ANOVA followed by Tukey’s post hoc test for multiple comparisons, with significance set at p < 0.05. A similar statistical approach was used for the rest of the experimental work presented in this study.

With `CCC1=C(C)CN(C(=O)NCCc2ccc(S(=O)(=O)NC(=O)N[C@H]3CC[C@H](C)CC3)cc2)C1=O` [GLIM, Glimepiride] as the molecule, how does the “average combination index (CI¯)” value (Chou–Talalay, mean over the dose combinations of Figure 4b) read?
Its value is 0.11.

And the “improvement (increase) in cytotoxicity relative to DOXO alone” value (¼ IC50 DOXO (0.12 µM) and ¼ IC50 GLIM (45.1 µM))?
Its value is 4.4 fold.
